Laboratory results as given in CN114621354A.

Legend:
TNF-α (human) [1] = biological target: TNF-α (human) (UniProt P01375); experiment: BLI (BLItz), biotinylated binder on streptavidin sensor, TNF-α in solution, 1:1 model
TNF-α (human) [2] = biological target: TNF-α (human) (UniProt P01375); experiment: indirect ELISA on coated TNF-α

Substance	Kd (TNF-α (human) [1]) [nM]	koff (TNF-α (human) [1]) [s⁻¹]	kon (TNF-α (human) [1]) [M⁻¹ s⁻¹]	EC50 (TNF-α (human) [2]) [nM]
Ada-Fab (Fab; other documents disagree on this pair)	0.525	0.000269	512000	1.37
Adalimumab((Fab)2-Fc) (antibody; other documents disagree on this pair)	0.325	0.000101	311000	0.515
Fab-ABD094 (Fab; other documents disagree on this pair)	0.612	0.000334	546000	1.52
Fab-ABDwt (Fab; other documents disagree on this pair)	0.225	0.000155	686000	1.49
